Earlier results on six compounds are cited in US20230349886A1, “SYSTEMS AND METHODS FOR PREDICTING CARDIOTOXICITY OF MOLECULAR PARAMETERS OF A COMPOUND BASED ON MACHINE LEARNING ALGORITHMS” (UTI Limited Partnership, priority 2015, published 2023).

Protein sequences, listed by entry. Tags and fused reporters are not part of them. Lines headed by an entry give the natural chain unless they say otherwise; changes in a name come on top. Residues count along the entry.
UniProt Q12809: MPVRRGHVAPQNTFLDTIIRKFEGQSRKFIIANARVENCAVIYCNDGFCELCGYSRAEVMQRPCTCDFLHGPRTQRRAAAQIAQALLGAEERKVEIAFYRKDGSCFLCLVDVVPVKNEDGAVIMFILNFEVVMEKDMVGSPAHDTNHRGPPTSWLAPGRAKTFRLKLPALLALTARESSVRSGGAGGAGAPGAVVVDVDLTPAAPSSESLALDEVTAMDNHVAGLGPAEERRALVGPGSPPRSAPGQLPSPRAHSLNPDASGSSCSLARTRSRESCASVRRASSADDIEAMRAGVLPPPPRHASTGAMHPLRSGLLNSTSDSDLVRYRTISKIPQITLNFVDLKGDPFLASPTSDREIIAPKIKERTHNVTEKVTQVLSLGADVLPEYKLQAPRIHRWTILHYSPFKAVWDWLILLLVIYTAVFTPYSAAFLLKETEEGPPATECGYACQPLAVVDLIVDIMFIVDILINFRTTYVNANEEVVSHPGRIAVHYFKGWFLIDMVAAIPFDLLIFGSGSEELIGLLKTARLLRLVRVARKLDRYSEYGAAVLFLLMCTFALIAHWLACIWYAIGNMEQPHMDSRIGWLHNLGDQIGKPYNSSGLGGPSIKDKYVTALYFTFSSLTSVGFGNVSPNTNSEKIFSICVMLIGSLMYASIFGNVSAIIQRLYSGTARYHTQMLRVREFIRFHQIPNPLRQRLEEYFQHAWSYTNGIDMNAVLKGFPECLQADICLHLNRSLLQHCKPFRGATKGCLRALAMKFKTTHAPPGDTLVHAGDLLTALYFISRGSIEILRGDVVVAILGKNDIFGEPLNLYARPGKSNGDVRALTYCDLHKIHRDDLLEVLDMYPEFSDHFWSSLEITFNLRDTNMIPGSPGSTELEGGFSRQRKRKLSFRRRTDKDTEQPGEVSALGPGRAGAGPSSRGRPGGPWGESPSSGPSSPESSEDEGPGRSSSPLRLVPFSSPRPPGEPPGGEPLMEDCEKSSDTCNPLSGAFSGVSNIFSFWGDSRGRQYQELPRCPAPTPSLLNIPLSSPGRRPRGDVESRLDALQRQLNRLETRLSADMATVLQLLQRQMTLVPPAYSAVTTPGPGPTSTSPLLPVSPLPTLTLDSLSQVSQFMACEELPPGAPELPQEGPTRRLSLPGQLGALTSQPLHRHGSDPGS
UniProt Q14524, 1-2016 isoform Q14524-4 V215L/S234P: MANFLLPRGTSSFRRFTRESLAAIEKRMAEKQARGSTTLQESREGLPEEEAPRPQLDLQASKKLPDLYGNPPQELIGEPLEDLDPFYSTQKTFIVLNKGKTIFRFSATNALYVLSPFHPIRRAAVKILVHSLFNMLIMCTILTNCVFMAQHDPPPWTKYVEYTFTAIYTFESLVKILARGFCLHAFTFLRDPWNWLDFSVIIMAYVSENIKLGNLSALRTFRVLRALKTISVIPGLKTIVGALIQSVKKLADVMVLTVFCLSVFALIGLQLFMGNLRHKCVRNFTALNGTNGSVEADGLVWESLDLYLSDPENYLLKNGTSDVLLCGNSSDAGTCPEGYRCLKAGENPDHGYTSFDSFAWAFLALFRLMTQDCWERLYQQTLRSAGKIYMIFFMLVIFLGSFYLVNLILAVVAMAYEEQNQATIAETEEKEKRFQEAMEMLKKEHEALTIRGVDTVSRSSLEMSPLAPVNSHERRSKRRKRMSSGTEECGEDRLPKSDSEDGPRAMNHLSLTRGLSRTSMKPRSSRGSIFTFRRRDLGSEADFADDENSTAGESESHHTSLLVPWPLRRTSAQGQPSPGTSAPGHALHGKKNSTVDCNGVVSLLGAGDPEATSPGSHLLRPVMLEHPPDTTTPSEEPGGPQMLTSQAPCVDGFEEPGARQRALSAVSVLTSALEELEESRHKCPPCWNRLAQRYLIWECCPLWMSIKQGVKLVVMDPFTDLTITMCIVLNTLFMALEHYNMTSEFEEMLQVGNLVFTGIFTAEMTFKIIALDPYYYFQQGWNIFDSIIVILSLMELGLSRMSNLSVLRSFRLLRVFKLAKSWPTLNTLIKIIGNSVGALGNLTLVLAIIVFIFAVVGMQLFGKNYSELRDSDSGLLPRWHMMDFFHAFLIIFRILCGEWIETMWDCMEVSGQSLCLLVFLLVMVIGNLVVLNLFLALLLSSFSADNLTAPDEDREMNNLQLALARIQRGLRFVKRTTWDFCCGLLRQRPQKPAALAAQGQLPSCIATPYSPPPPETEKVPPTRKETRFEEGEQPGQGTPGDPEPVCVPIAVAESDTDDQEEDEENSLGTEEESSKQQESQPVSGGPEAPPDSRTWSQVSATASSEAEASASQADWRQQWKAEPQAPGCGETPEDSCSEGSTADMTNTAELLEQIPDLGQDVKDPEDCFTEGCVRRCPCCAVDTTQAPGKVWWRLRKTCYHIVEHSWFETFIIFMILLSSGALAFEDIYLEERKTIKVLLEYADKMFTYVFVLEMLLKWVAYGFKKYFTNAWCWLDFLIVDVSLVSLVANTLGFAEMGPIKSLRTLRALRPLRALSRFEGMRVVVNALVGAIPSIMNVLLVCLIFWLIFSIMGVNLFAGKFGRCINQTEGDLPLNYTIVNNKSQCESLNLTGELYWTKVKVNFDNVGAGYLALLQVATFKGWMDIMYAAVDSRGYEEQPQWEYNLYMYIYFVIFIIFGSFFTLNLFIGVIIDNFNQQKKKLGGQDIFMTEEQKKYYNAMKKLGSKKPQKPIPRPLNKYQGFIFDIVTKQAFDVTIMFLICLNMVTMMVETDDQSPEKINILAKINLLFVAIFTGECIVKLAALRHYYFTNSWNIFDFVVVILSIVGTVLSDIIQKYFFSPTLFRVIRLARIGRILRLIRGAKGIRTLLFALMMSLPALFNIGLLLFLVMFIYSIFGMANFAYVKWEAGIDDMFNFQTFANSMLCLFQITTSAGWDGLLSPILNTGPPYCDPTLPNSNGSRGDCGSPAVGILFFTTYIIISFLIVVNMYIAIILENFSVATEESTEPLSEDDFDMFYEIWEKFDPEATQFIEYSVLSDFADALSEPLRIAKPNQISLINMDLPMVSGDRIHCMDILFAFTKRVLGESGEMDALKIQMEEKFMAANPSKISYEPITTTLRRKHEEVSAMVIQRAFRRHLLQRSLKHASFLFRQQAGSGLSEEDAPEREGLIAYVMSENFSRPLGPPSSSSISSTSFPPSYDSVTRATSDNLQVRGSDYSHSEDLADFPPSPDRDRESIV
UniProt Q13936, 1-2138 isoform Q13936-12: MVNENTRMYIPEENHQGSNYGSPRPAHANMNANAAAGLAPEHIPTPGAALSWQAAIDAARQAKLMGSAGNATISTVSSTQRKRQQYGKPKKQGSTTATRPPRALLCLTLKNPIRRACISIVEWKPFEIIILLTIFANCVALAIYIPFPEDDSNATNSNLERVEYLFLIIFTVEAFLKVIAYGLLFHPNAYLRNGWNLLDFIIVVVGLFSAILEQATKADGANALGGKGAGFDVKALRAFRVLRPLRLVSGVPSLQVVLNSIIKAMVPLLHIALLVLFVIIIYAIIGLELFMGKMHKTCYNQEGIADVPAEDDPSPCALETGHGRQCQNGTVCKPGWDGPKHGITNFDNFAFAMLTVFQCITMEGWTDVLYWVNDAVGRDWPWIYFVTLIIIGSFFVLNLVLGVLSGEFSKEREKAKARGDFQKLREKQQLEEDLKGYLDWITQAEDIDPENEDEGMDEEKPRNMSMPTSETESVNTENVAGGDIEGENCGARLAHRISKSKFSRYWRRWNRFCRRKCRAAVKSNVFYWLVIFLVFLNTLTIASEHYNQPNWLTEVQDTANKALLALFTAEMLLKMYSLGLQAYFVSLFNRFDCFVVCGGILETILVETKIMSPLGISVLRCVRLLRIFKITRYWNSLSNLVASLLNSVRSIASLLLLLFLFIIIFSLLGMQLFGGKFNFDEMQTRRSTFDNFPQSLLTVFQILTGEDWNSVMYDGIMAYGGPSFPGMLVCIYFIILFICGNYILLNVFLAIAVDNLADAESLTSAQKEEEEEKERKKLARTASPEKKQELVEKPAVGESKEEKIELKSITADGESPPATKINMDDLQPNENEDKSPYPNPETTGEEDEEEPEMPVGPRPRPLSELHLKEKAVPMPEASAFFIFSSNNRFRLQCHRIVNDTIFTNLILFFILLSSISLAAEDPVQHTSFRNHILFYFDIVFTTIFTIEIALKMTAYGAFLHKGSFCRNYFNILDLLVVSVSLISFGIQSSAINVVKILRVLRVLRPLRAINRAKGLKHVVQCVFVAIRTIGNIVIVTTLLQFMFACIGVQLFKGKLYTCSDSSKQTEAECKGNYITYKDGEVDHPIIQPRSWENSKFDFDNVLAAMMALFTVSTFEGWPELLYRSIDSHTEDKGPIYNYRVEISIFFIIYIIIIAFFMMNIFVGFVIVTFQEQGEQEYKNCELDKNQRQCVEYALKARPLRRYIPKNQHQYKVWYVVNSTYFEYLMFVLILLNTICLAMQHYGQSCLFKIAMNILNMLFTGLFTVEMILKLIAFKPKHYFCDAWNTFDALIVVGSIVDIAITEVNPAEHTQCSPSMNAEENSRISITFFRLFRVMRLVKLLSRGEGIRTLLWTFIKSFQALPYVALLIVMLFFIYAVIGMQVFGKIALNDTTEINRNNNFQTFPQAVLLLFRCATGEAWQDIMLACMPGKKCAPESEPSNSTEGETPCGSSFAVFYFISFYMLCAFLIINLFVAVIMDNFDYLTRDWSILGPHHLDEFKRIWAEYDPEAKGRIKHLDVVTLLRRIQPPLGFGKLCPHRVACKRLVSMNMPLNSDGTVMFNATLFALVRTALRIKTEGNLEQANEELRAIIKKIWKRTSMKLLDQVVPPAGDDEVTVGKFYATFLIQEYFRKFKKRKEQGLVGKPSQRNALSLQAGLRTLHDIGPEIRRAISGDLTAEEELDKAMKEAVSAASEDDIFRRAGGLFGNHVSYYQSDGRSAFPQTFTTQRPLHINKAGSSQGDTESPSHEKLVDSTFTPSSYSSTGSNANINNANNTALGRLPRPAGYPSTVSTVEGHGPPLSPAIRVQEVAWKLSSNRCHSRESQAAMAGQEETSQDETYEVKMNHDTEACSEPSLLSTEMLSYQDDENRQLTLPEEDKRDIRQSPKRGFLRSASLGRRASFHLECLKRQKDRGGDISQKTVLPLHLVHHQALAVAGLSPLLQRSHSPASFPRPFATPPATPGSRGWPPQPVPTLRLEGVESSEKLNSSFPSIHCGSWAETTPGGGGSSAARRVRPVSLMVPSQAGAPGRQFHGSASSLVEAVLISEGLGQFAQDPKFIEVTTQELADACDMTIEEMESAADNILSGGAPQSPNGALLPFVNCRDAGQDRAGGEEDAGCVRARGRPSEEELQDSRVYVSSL

The term IC50 denotes the midpoint of a concentration-inhibition curve. By pIC50 is commonly meant −log10 of the IC50, conventionally taken in molar units.

Where two headings read alike, the source gives them in different places.

For one data set, the target named is hERG (Homo sapiens, UniProt Q12809).
For data set [1] the following is noted: Brown dataset; negative log of free drug concentration.
For a further data set, the target named is Nav1.5 (Homo sapiens, UniProt Q14524). The note with it: read-out: NAV1.5 IC50; Brown dataset.
The target of the next data set is Cav1.2 (Homo sapiens, UniProt Q13936).
Setting [2] is: read-out: CAV1.2 IC50, Brown dataset.

Turning to `O=C1NC(=O)C(c2ccccc2)(c2ccccc2)N1` [phenytoin], at hERG, the “HERG pIC50” value is 3.833 665, the IC50 is 147 µM and the pIC50 is recorded as 3.833.

For `N[C@@H](CC(=O)N1CCn2c(nnc2C(F)(F)F)C1)Cc1cc(F)c(F)cc1F` [sitagliptin], the pIC50 on hERG (Table 11, calculated from HERG-IC50 of the Kramer et al. 2013 data) is listed as 3.758. In addition, the IC50 on hERG (read-out: HERG IC50, Brown dataset) was 175 µM.

`Cc1nc2n(c(=O)c1CCN1CCC(c3noc4cc(F)ccc34)CC1)CCCC2` [risperidone]: the pFD in data set [1] is listed as 8.6989.

Turning to `CCN(CC)CCNC(=O)c1c(C)[nH]c(/C=C2\C(=O)Nc3ccc(F)cc32)c1C` [sunitinib], the IC50 at Nav1.5 is 16.5 µM.

Take `CC(C)COCC(CN(Cc1ccccc1)c1ccccc1)N1CCCC1` (stereo not shown) [bepridil]: the “CAV1.2 pIC50” value on Cav1.2 (Brown dataset) was 6. On Cav1.2 (experimental data, Kramer et al. 2013), the CAV1p2-pIC50 is on record as 6. Besides, the IC50 was 1 µM at Cav1.2 (read-out: CAV1p2-IC50, experimental data, Kramer et al. 2013) and 1 µM at Cav1.2 (setting [2]).

Take `Cc1nc(Nc2ncc(C(=O)Nc3c(C)cccc3Cl)s2)cc(N2CCN(CCO)CC2)n1` [dasatinib]: the IC50 at Cav1.2 (setting [2]) is 81.1 µM; at Nav1.5 it was 76.3 µM.
